Consider two molecules from patent publication US12435062B2, “Amide compounds and uses thereof” (HUTCHISON MEDIPHARMA LIMITED, priority 2020, dated 2025).

By UniProt entry, the sequences of proteins in these tests, tags left out. Residues count along the entry.
UniProt P07333, 20-972 limits assumed: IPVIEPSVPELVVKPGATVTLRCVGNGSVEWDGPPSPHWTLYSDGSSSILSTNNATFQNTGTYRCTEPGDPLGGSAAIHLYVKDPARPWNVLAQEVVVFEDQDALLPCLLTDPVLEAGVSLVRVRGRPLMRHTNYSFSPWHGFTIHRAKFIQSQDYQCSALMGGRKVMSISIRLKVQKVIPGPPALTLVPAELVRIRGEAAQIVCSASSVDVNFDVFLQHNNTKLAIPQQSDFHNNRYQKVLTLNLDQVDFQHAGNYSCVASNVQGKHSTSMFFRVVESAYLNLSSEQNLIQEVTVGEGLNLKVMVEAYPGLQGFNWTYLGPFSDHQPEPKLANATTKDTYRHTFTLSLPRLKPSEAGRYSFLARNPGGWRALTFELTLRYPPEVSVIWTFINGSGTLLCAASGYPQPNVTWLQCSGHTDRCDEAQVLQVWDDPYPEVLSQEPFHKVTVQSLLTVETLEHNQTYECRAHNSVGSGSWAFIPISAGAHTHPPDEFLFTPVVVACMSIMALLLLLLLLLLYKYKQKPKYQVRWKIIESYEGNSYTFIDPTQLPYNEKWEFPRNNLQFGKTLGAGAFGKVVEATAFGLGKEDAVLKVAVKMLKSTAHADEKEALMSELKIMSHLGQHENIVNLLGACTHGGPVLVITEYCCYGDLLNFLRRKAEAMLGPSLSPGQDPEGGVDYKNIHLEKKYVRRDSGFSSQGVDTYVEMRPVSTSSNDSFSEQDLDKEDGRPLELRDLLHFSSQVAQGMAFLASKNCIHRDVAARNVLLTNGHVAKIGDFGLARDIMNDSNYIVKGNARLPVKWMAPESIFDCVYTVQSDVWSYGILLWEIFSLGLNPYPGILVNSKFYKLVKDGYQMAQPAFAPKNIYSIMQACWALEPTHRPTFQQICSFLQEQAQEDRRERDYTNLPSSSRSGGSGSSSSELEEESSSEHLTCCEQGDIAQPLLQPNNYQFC

The target in test [1] is Recombinant human CSF1R kinase (Homo sapiens (Human), UniProt P07333). The conditions noted are these: Z-LYTE Tyr 1 peptide substrate.
The test system of test [2] is Ba/F3^BCR-FMS-11 cells. As to the kind of experiment: Cell proliferation experiment (Ba/F3^BCR-FMS-11, cckit-8). The conditions noted are these: Ba/F3^BCR-FMS-11 cell proliferation, 72 hours. How it is done:
Cell Proliferation Experiment
Ba/F3^BCR-FMS-11, mouse primary B lymphocytes stably expressing the BCR-FMS fusion gene. The cells were cultured in an RPMI 1640 medium containing 10% FBS.
2. Reagents and instruments
• cckit-8 kit: Dojindo, 9 CK04; • Envision: Perkin Elmer; • Cell culture plate: Facol, 9353027. 3. Experimental steps
The BCR-FMS fusion gene was transfected into Ba/F3 cells, and the cell line Ba/F3^BCR-FMS-11 that stably expresses BCR-FMS and grows depending on CSF-1R was screened. Ba/F3^BCR-FMS-11 cell proliferation experiments is completed by using the Cell Counting kit cckit-8 in a 96-well plate. In a 96-well plate, 5000/well of Ba/F3^BCR-FMS-11 cells were inoculated at 100 μL/well. After 24 hours, the test compound was diluted to 10, 3.33, 1.11, 0.37, 0.12, 0.037, 0.012, and 0.004 μM, the concentration of DMSO was kept at 5%. […] The optical density absorption value at 450 nm of each well was detected by using Perkin Elmer Envision instrument.
wherein • Drug-treated well read-out: indicating the optical density signal of a cell well with the test compound treatment. • Cell well read-out: indicating the optical density signal of a cell well not treated with the test compound (only 0.5% DMSO). • Background read-out: indicating the optical density signal of a well with the cell medium. […]

Test [3] deals with CSF1R phosphorylation in THP-1 cells (Homo sapiens (Human), UniProt P07333). As to the kind of experiment: Detection of CSF1R phosphorylation activity at cell level (THP-1, M-CSF stimulated, ELISA). The conditions noted are these: p-CSF1R ELISA, compound 60 min, 300 ng/mL M-CSF 1 min. A general note: ELISA stands for enzyme-linked immunosorbent assay.

As usually defined, the IC50 is the concentration that gives 50% inhibition. As for `Cn1ccc(-c2cc(Oc3ccc(NC(=O)c4cccn(C5COC5)c4=O)nc3)ccn2)c1`, the IC50 in test [1] amounted to 17 nM; in test [2], 11 nM; in test [3], 26 nM.

Regarding `CC(C)n1cccc(C(=O)Nc2ccc(Oc3ccnc(-c4cnn(C)c4)c3)cc2)c1=O`, the IC50 in test [1] was 19 nM; in test [2], 72 nM; in test [3] it was 256 nM.
